# Measurements published in US20260226068A1, “IMIDAZOTRIAZINE IL-17A MODULATORS AND USES THEREOF” (DICE ALPHA, INC., priority 2023, published 2026).
# Amino acid sequences for entries named in this document (tags omitted). Residues count along the entry.
# UniProt Q16552, 24-155 limits assumed: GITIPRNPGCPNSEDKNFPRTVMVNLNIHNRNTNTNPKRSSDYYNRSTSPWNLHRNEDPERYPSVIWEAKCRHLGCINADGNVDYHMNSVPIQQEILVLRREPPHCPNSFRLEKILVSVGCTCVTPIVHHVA
# UniProt Q96PD4, 31-163 limits assumed: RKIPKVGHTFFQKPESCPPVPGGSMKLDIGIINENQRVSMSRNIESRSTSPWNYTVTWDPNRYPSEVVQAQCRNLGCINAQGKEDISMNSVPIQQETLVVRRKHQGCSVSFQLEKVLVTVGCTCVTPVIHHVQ
# What was measured:
# IL-17A/A = IL-17A/A (Homo sapiens, UniProt Q16552); experiment: IL-17A/A HEK-Blue cell assay (SEAP reporter); conditions: read-out: HEK-Blue IL17AA (IC50 for IL-17A/A inhibition); HEK-Blue IL-17A reporter cells, IL17A/A 5 ng/mL, 20 hours, SEAP read at A630
# Procedure: (§1) The HEK-Blue IL-17A reporter cell line (Fisher #NC 1408637) was used for cell-based IL-17A/A inhibition assays. Cells were grown and prepared for assays according to the manufacturer's instructions. This cell line consists of HEK 293 cells that were designed to expressed IL-17RA, IL-17RC, and the Act1 adapter molecule, the combination of which, when stimulated by IL-17A/A or IL17A/F activates a […] promoter and drives expression of the recombinant Secreted Alkaline Phosphatase (SEAP) gene. Media from the cells is then added to a development reagent (Quanti-Blue Substrate, Fisher #NC971 1613), and read at A630.
# (§2) Compounds were dispensed in DMSO to an empty clear 384-well tissue culture plate in a titration ranging from 10 μM to 27 pM, with DMSO added to every well to a final concentration of […]. Cells were then added to the plate (45 μL/well at a concentration of 280,000 cells/mL). IL17A/A (Genscript #Z03228) or IL17A/F (R&D Systems) was added to the plate to a final concentration of 5 ng/mL and a final well volume of 50 μL. The cells, compound, and IL-17A/A or IL17A/F were then incubated for 20 hours before media was removed for SEAP analysis. The resulting inhibition curve was then analyzed using Dotmatics' integrated 4-parameter fit screening protocol to generate IC50 values.
# (§3) Table 2 includes IC50 values for IL-17A/A and IL-17A/F inhibition of selected compounds; with compounds having a IC50 of A<100 nM; B 100-1000 nM; and C>1000 nM.
# IL-17A/F = IL-17A/F (Homo sapiens, UniProt Q16552+Q96PD4); experiment: IL-17A/F HEK-Blue cell assay (SEAP reporter); conditions: read-out: HEK-Blue IL17AF (IC50 for IL-17A/F inhibition); HEK-Blue IL-17A reporter cells, IL17A/F 5 ng/mL, 20 hours, SEAP read at A630
# Procedure: as §1, §2, §3
IC50 (IL-17A/A),IC50 (IL-17A/F),Structure (SMILES)
< 100 nM,100 to 1000 nM,"CCn1nccc1C(=O)N[C@H](c1cn2nc(C[C@H]3C[C@@H](C(F)(F)F)CNC3=O)c(CN3CCOCC3C)nc2n1)C1CCC(F)(F)CC1 (single isomer, unassigned) [Compound 232]"
< 100 nM,> 1000 nM,O=C(N[C@H](c1cn2nc(C[C@H]3C[C@@H](C(F)(F)F)CNC3=O)cnc2n1)[C@H]1CCCC(F)(F)C1)c1nonc1C1CC1
100 to 1000 nM,> 1000 nM,O=C(N[C@H](c1cn2nc(C[C@H]3C[C@@H](C(F)(F)F)CNC3=O)cnc2n1)[C@@H]1CCCC(F)(F)C1)c1nonc1C1CC1
